Assay results taken from patent US20030138434A1, “Agents for enhancing the immune response” (priority 2001, published 2003).

Tested on: HCG
Assay: Serum antibody to HCG by ELISA after IP immunization (Example 2)
Type: in vivo, Balb/c mice
Conditions: 1 ug HCG per boost IP, day 33 pooled test bleed, 3× background criteria
Experimental: The HCG was obtained from BioPacific of 4240 Hollis Street, Emeryville Calif. 94608 and was provided as a lyophilized powder from a 50 mM ammonium carbonate solution.
Several laboratories have experience with conjugating substances to alpha 2-M. Linkers for general protein-protein coupling may also be used and are available from Pierce Chemicals with easy to follow instructions. Synergy Vaccines Inc. is an “Incubator Company” located at Becton Dickinson's RTP, NC facility and was selected to carry out the conjugation step.
All immunizations were given intraperitoneal (IP) at two-week intervals. Again, the IP route was selected thereby creating an option for later harvesting of splenetic B-Cells and generation of MABs for individual antibody analysis. Each animal received 1 ug of HCG per boost in 200 ul of Hanks Buffered Saline. Serum samples were taken from each animal in a test group and pooled for titration. […]
9. Stop the reaction with 50 ul of 4.5 molar sulfuuric acid and read at 492 nm with a Titertek plate reader for final record.

## HCG: purified protein preparation of human chorionic gonadotropin, immunogen alone
  serum activity toward coated HCG antigen, in words: could not be called positive at the 1:3,333 dilution
